Laboratory results from ChEMBL document CHEMBL3352559, “Synthesis and pharmacological investigation of aralkyl diamine derivatives as potential triple reuptake inhibitors” (Eur J Med Chem, 2014).

Molecular target: Sodium-dependent noradrenaline transporter (Homo sapiens, UniProt P23975)
Assay: Displacement of [3H]Nisoxetine from human NET at 10 uM relative to control

Work on `CN(C)CCC(c1ccc(Cl)c(Cl)c1)N1CCOCC1` (stereo unspecified) yielded an inhibition of 83.8%.
